The text below walks through data of PubChem BioAssay AID1346428 (National Center for Advancing Translational Sciences (NCATS), 2018).

Chains of the proteins cited; added tags and fusions are not shown.
UniProt O75388, whole entry: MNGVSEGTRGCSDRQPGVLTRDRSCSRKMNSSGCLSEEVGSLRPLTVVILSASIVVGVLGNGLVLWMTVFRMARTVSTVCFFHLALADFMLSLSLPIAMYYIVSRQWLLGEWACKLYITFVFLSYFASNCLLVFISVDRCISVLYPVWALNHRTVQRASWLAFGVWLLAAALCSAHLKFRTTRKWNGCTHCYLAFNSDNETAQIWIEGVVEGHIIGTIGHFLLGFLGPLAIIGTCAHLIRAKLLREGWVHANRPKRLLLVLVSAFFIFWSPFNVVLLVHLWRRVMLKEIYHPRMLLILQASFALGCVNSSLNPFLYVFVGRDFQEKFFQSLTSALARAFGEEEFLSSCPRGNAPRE

The entries are a selection whose mix differs from that of the whole data set. Calls of active or inactive are those of the source.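 How the source made its calls: active means activation of at least 60% and not above a set upper limit (about 1 call in 100 departs from these limits); inconclusive means activation of 40% to 60%, or above that upper limit; inactive means activation under 40%.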

The test concerns the target Probable G-protein coupled receptor 32 (Homo sapiens) (UniProt O75388). The experiment in a line: qHTS for Agonists of Human Resolvin D1 Receptor DRV1. Further: 0% is about no effect. Particulars: CHO-K1 GPR32 beta-arrestin PathHunter luminescence, 90 min; at 76.9 µM; stronger effect = higher value; zero percent set by DMSO-only wells. For orientation: In qHTS, concentration-response curves come from the screen itself.
For the compound `CCC(=O)N(c1ccccc1)C1(COC)CCN(CCn2nnn(CC)c2=O)CC1`, the activation is inactive: -14.4%. As for `CCC(=O)N(c1ccccc1)C1(COC)CCN(CCc2cccs2)CC1`, the activation was inactive: -1.63%. As for `CN(CCCl)CCCl`, the figure is inactive: -23.2%.
